Laboratory results reported in the NIST ThermoML archive (doi:10.1021/acs.jced.7b00119).

Key:
[1] = 353.15 K; Liquid; Closed cell (Static) method
[2] = excess molar enthalpy (molar enthalpy of mixing); xn = mol fraction of the nth substance listed; conditions: 323.15 K, 1272 kPa, Liquid, Flow calorimetry

Row | vapor or sublimation pressure [1] | excess molar enthalpy ([2]; x1 = 0.0281) | excess molar enthalpy ([2]; x1 = 0.0575) | excess molar enthalpy ([2]; x1 = 0.0883) | excess molar enthalpy ([2]; x1 = 0.1206) | excess molar enthalpy ([2]; x1 = 0.1546) | excess molar enthalpy ([2]; x1 = 0.1904) | excess molar enthalpy ([2]; x1 = 0.2281) | excess molar enthalpy ([2]; x1 = 0.2678) | excess molar enthalpy ([2]; x1 = 0.3098) | excess molar enthalpy ([2]; x1 = 0.3543) | excess molar enthalpy ([2]; x1 = 0.4014) | excess molar enthalpy ([2]; x1 = 0.4515) | excess molar enthalpy ([2]; x1 = 0.5047) | excess molar enthalpy ([2]; x1 = 0.5615) | excess molar enthalpy ([2]; x1 = 0.6221) | excess molar enthalpy ([2]; x1 = 0.687) | excess molar enthalpy ([2]; x1 = 0.7566) | excess molar enthalpy ([2]; x1 = 0.8316) | excess molar enthalpy ([2]; x1 = 0.9125) | Structure (SMILES)
1 | 13.9 ± 0.17 kPa | – | – | – | – | – | – | – | – | – | – | – | – | – | – | – | – | – | – | – | CCCCOCCCC [dibutyl ether]
2 | – | 0.0387 ± 0.00167 kcal/mol | 0.0755 ± 0.00263 kcal/mol | 0.112 ± 0.00335 kcal/mol | 0.147 ± 0.00406 kcal/mol | 0.179 ± 0.00478 kcal/mol | 0.209 ± 0.0055 kcal/mol | 0.234 ± 0.00598 kcal/mol | 0.258 ± 0.00645 kcal/mol | 0.277 ± 0.00693 kcal/mol | 0.295 ± 0.00717 kcal/mol | 0.308 ± 0.00741 kcal/mol | 0.317 ± 0.00765 kcal/mol | 0.321 ± 0.00789 kcal/mol | 0.317 ± 0.00765 kcal/mol | 0.308 ± 0.00741 kcal/mol | 0.287 ± 0.00693 kcal/mol | 0.252 ± 0.00621 kcal/mol | 0.199 ± 0.00526 kcal/mol | 0.12 ± 0.00359 kcal/mol | CCCCOCCCC [dibutyl ether] + CC(=O)N(C)C

Numbers after ± are expanded uncertainties.
